Measured water solubility values of organic chemicals

From the experimental data distributed with OPERA 2.9.

Water solubility is log10 of mol/L, nominally at 25 °C; higher is more soluble.
Cells with "–" have no entry in this list.

| compound | name | water solubility (log10 mol/L) |
|---|---|---|
| Nc1nc(/C(=N/OC(c2ccccc2)(c2ccccc2)c2ccccc2)C(=O)N[C@H]2C(=O)N3C(C(=O)OC(c4ccccc4)c4ccccc4)=C(C=O)CS[C@@H]23)ns1 | – | -7.606 |
| CC(Oc1ccc(Cl)cc1Cl)C(O)=NC(C)(C#N)C(C)C (stereo unspecified) | Fenoxanil | -1.03 |
| O=P(O)(O)C(Cl)(Cl)P(=O)(O)O | Clodronic acid | -1.516 |
| Cn1sccc1=O | 2-Methyl-3(2H)-isothiazolone | 0.669 |
| COC(=O)c1ccc(C(=O)OC)c([N+](=O)[O-])c1 | Dimethyl nitroterephthalate | -2.836 |
| CCCCOC(=O)OCCCC | Carbonic acid, dibutyl ester | -3.141 |
| CCCCN(CCCC)C(=O)N(CCCC)CCCC | 1,1,3,3-Tetrabutylurea | -4.821 |
| FC(F)=C(F)C(F)(F)OC(F)(F)C(F)(F)C(F)(F)F | – | -5.945 |
| CCCC/C=C/CCCCOC(C)=O | (E)-5-Decen-1-ol acetate | -4.561 |
| NC(=O)N=NC(N)=O | Azodicarbonamide | -3.521 |
| CCC[C@H]1CC[C@H](c2ccc(-c3ccc(B(O)O)c(F)c3)cc2)CC1 | – | -6.272 |
| O=S(=O)(N(CCO)CCO)C(F)(F)C(F)(F)C(F)(F)C(F)(F)F | N,N-Bis(2-hydroxyethyl)perfluorobutanesulfonamide | -2.839 |
| Nc1ccc(/N=N/c2ccc(/N=N/c3ccc(/N=N/c4c(S(=O)(=O)[O-])cc5cc(NC(=O)c6ccccc6)ccc5c4O)c4ccc(S(=O)(=O)[O-])cc34)c3ccc(S(=O)(=O)[O-])cc23)cc1S(=O)(=O)[O-].[Na+].[Na+].[Na+].[Na+] | – | -2.394 |
| CC1=NN(c2cccc(S(=O)(=O)[O-])c2)C(=O)C1/N=N/c1cc(Cl)c(C)cc1S(=O)(=O)[O-].[Ca+2] (stereo partly drawn) | C.I. Pigment Yellow 191 | -3.745 |
| O=S(=O)(Cl)c1ccc2ccccc2c1 | 2-Naphthalenesulfonyl chloride | -2.743 |
| Cc1ccc(S(=O)(=O)O)cc1N | Benzenesulfonic acid, 3-amino-4-methyl- | -1.032 |
| CCCCOCCOC(=O)c1ccccc1 | Ethanol, 2-butoxy-, 1-benzoate | -3.322 |
| CN(C/C=C/c1ccccc1)Cc1cccc2ccccc12 | Naftifine | -6.099 |
| Clc1ccc(I)cc1 | Benzene, 1-chloro-4-iodo- | -3.785 |
| C[C@@H]1O[C@@H](O[C@@H]2[C@@H](Oc3cc(O)c(C(=O)CCc4ccc(O)cc4)c(O)c3)O[C@@H](CO)[C@H](O)[C@H]2O)[C@H](O)[C@H](O)[C@H]1O | – | -3.072 |
| C=Cc1ccc(OC(C)=O)cc1 | 4-Ethenylphenyl acetate | -2.354 |
| CCCCC(CC)CNC(=O)CC(C)CC(C)(C)C (stereo unspecified) | N-(2-Ethylhexyl)-3,5,5-trimethylhexanamide | -5.391 |
| C1=C\CCCCCC/1 | Cyclooctene, (1Z)- | -4.565 |
| COc1cc(C=C(C(C)=O)C(C)=O)cc(OC)c1OC | Trimethoxybenzylidene pentanedione | -3.735 |
| CNc1nc2ncncc2[nH]1 | N-Methyl-7H-purin-8-amine | -1.827 |
| C=CCSS(=O)CC=C (stereo unspecified) | Allicin | -0.83 |
| CCCC1OCC(C)([N+](=O)[O-])CO1 (stereo unspecified) | 5-methyl-5-nitro-2-propyl-1,3-dioxane | -1.8 |
| O=C1c2ccccc2-c2ccc3c4c([N+](=O)[O-])cc5c6c(ccc(c7ccc1c2c73)c64)C(=O)c1ccccc1-5 | Anthra[9,1,2-cde]benzo[rst]pentaphene-5,10-dione, 16-nitro- | -4.399 |
| O=c1c(-c2ccccc2)c1-c1ccccc1 | Diphenylcyclopropenone | -3.485 |
| Cc1ccc2c(c1)[C@H](Nc1nc(N)nc(C(C)F)n1)[C@@H](C)C2 (stereo partly specified) | Indaziflam | -5.03 |
| CCOC(=O)/C(=C\c1ccc(OC)c(OC)c1)N=CO | Ethyl 2-formamido (3,4-dimethoxyphenyl) acrylate | -2.409 |
| C/C(=C\c1ccc(C)cc1)CCC=O | 4-Pentenal, 4-methyl-5-(4-methylphenyl)-, (4E)- | -3.567 |
| COc1cc2c(cc1OC)CC(=O)NC=C2 | 7,8-dimethoxy-1,3-dihydro-2H-3-benzazepin-2-one | -3.728 |
| COC(=O)c1cc(Cl)ccc1Cl | Methyl 2,5-dichlorobenzoate | -3.37 |
| CC(C)CN(C[C@@H](O)[C@@H](N)Cc1ccccc1)S(=O)(=O)c1ccc(N)cc1 | – | -3.929 |
| C/C=C/C=C/CCCCCCCO | Codlelure | -3.851 |
| CNS(=O)(=O)CCc1ccc2[nH]cc(C3CCN(C)CC3)c2c1 | Naratriptan | -3.469 |
| FC(F)(F)C(F)(F)C(F)(F)C(F)(F)C(F)(F)C(F)(F)CCI | 1H,1H,2H,2H-Perfluorooctyl iodide | -7.189 |
| CCCCCCCCCc1cc2ccccc2c(S(=O)(=O)[O-])c1CCCCCCCCC.CCCCCCCCCc1cc2ccccc2c(S(=O)(=O)[O-])c1CCCCCCCCC.[Mg+2] | Naphthalenesulfonic acid, dinonyl-, magnesium salt (2:1) | -4.652 |
| COC(=O)N/N=C/c1c[n+]([O-])c2ccccc2[n+]1[O-] | Carbadox | -3.655 |
| CCCCCCCC/C=C\CCCCCCCC(=O)OCCC(C)C | 3-Methylbutyl (9Z)-9-octadecenoate | -8.07 |
| CCN(CC)c1ccc(N=Nc2c(C#N)cc([N+](=O)[O-])cc2C#N)c(C)c1 | – | -7.473 |
| Nc1ccc2c(S(=O)(=O)O)cc(S(=O)(=O)O)cc2c1 | 1,3-Naphthalenedisulfonic acid, 6-amino- | -0.122 |
| CCCCCC1CCC(C2CC=C(c3ccc(OCC)c(F)c3F)CC2)CC1 (stereo unspecified) | – | -6.512 |
| CCC(F)(F)C(F)(F)C(F)(F)C(F)(F)C(F)(F)C(F)(F)F | 1-(Perfluorohexyl)ethane | -6.843 |

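The numbers are reported measurements, compiled and curated for the OPERA QSAR suite. One number stands for a compound and property, with no spread given. Method, purity and exact conditions of the single measurements are not given. Where a salt, mixture or single isomer is drawn, the source does not say that exactly this form was tested. Unmarked limits or estimates from the upstream databases cannot be ruled out.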